System: Alb-F8*R593C mice
Conditions: mouse, in vivo

Q: What does the source list for `CC(C)C[C@H](NC(=O)[C@H](Cc1ccccc1)NC(=O)c1cnccn1)B(O)O` [Bortezomib]?
A: VCN in sorted hepatocytes versus LV only: no increase; VCN of KC versus LV only: trend of decrease; VCN of pDC versus LV only: trend of decrease; circulating hFVIII amounts versus LV only: higher

— patent US20250281645A1, “Lentiviral Vector” (Ospedale San Raffaele S.r.l., priority 2022, published 2025)
